One experiment relates to Ramos cells. Description: Cytotoxicity in Ramos cells. It is filed as cell-based. Particulars: read-out: Ramos Cell EC50.
Another experiment has as its target F1F0-ATPase (Bos taurus, UniProt P13621). Description: Inhibition of F1F0-ATPase activity in synthesizing ATP. It is filed as biochemical. Particulars: read-out: ATP Syn IC50; inhibition of ATP synthesis by F1F0-ATPase.

Each structure is given as a SMILES string.

The term EC50 denotes the concentration giving half of the maximal effect. Usually IC50 stands for the concentration that gives 50% inhibition.

Take `COC[C@H](C)NC(=NC(=O)c1cccnc1C(F)(F)F)Nc1cc(-c2ccc(F)cc2)n[nH]1`: the EC50 in the experiment with Ramos cells is > 10 µM. The IC50 on F1F0-ATPase is > 10 µM.

Turning to `COC[C@H](C)NC(=NC(=O)c1ccc(C(F)(F)F)nc1)Nc1cc(C(F)(F)F)n[nH]1`, in the experiment with Ramos cells, the EC50 is < 10 µM. The IC50 at F1F0-ATPase was < 10 µM.

`COC[C@H](C)NC(=NC(=O)c1ccc(F)cc1)Nc1cc(C(F)(F)F)n[nH]1`: the concentration for a half-maximal effect (EC50) in the experiment on Ramos cells is > 10 µM. On F1F0-ATPase, the IC50 is < 10 µM.

On to `Cc1ccc(-c2cc(NC(=NC(=O)c3ccc(C(F)(F)F)cc3)NCCCOC(C)C)[nH]n2)cc1F`, for which the EC50 in the experiment on Ramos cells was < 10 µM. In addition, the IC50 at F1F0-ATPase is < 10 µM.

For `CCOC[C@H](C)NC(=NC(=O)c1ccc(F)cc1)Nc1cc(-c2ccc(C)c(F)c2)n[nH]1`, the EC50 in the experiment with Ramos cells was < 10 µM. Further, the IC50 on F1F0-ATPase is < 10 µM.

Take `CCOC[C@H](C)NC(=NC(=O)c1ccc(Cl)cc1)Nc1cc(-c2cc(F)cc(F)c2)n[nH]1`: the EC50 in the experiment with Ramos cells was > 10 µM. Moreover, the IC50 at F1F0-ATPase is < 10 µM.

For the origin of these results see patent publication US9139532B2, “Pyrazolyl guanidine F1F0-atpase inhibitors and therapeutic uses thereof” (Lycera Corporation, priority 2010, dated 2015).
